Laboratory results taken from paper PMC8586358 (Nature Communications, 2021).

Sequences of proteins named here, by UniProt entry; tags and fusion partners are left off.
UniProt P47746, whole entry: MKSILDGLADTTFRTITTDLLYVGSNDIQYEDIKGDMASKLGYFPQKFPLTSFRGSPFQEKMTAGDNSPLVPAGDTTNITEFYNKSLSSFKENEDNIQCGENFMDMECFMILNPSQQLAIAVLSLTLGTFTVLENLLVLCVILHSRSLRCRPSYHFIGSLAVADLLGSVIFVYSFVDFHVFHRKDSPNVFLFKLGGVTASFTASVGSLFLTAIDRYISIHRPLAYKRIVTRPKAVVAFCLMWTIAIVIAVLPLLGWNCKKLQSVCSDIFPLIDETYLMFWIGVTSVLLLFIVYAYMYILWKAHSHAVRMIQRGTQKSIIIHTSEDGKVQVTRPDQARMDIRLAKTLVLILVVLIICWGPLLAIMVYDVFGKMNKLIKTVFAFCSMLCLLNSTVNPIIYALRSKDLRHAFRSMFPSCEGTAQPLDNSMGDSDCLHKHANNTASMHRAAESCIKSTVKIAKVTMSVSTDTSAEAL

Target: GFP-CB1R (Mus musculus, UniProt P47746)
Settings: pretreatment with unlabeled antagonist

For `Cc1c(C(=O)NN2CCCCC2)nn(-c2ccc(Cl)cc2Cl)c1-c1ccc(Cl)cc1` [rimonabant], the “effect on fluo-cannabinoid binding” value was “completely prevented”.
